According to patent publication US6391848B1, “Soybean protein nutraceuticals” (The Regents of the University of California, priority 1999, dated 2002):

Conditions: in vivo

## lunasin
  survival of digestion, absorption and tissue distribution: effectively survives digestion, gets absorbed and ends up in the tissues
